Data on 1 substance can be found in patent US12371472B2, “Multimeric IL-15 soluble fusion molecules and methods of making and using same” (Altor BioScience, LLC., priority 2010, dated 2025).

In this assay the test system is 5T33P and MOPC-315P cells. Put plainly: Direct effect on myeloma cell viability and apoptosis in vitro. The assay is classed as cell-based, murine.

In the case of “IFN-γ: interferon-γ tested on 5T33P cells in vitro”, the “direct effect on tumor cell numbers and apoptosis in vitro” value is recorded as “no direct effect”.
